## Yeast mating assay B: variants of the scFv Ab-14

Reference: Li et al. 2023, doi:10.1038/s41467-023-39022-2. File: FLAb, binding data.

Binding partner: SARS-CoV-2 spike HR2 peptide, sequence PDVDLGDISGINAS.

Each scFv is VH, a (GGGGS)3 linker, VL, as in the parent Ab-14, and differs from it in the CDRs of the heavy chain only.
VH: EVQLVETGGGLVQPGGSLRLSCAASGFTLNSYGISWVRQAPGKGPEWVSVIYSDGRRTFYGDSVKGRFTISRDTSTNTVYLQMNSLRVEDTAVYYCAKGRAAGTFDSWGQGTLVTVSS
VL: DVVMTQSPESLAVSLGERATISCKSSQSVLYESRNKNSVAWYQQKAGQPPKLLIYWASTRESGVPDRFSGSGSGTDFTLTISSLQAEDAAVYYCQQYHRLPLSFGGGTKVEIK

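Designed CDR sequences, proposed from the first random library and measured here. Several design methods are mixed in this list. AlphaSeq pools MATa yeast showing the antibodies with MATalpha yeast showing the peptide. Mating (16 h, 30 °C) was followed by selection of diploids and sequencing of their barcodes. Scores were corrected for input abundance and mapped to Kd with protein pairs of known affinity run in the same pool. There are six technical replicates.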

Variants are written as CDR1, CDR2 and CDR3 of the heavy chain (limits as in the source). Parent: GFTLNSYGIS, VIYSDGRRTFYGDSVK, GRAAGTFDS.
The Kd shown is the geometric mean over detected replicates; a lower Kd is a better binder.
"nd" marks a missing value. The strain was present, yet no cells mated with the target were sequenced in any replicate, which points to weak or no binding.
The range of this assay differs from that of the first round, and the authors advise against merging the two.
Of ten entries with the parent sequence, four were seen in most replicates (averages 2.2 nM to 240 nM), three in one and three in none, so single entries are noisy.
The authors averaged sequences with at least three values out of six and counted those with two or fewer as poor binders.
Empty control strains, which show no peptide, gave a signal in 1% of pairings with all heavy chain designs; the median was 120 nM and 95% of these signals were weaker than 7.0 nM. No background was subtracted.
Some sequences occur more than once in the pool; their replicates are pooled.

Variant GFTLNSYGIS / VIYSDGVRTFYSDSVK / GQAAGTFDS showed 13 nM (6 of 6 replicates).
Variant GFDLDEYGIS / VIYADGKRTAYSDSVK / GNTAGTFDI showed 450 pM (6 of 6 replicates).
Variant GFSLNEYGIS / VIYSDGRRTFYSDSVK / GRQAGTFDT showed 510 pM (6 of 6 replicates).
Variant GDTLNSYGIS / VIYSDGRRTFYSDSVK / GRAGGTFDY showed nd (0 of 6 replicates).
Variant GFTLNSYGIS / VIYSDGRRTFYGDSVK / GREAGTFDS showed 8.6 nM (6 of 12 replicates).
Variant GFDLNEYGIS / VIYADGRRTAYIDSVK / GTAAGTFDV showed 1.0 nM (6 of 6 replicates).
Variant GFTLDQYGIS / VIYSDGRRTFYSDSVK / GRAAGTFDS showed 340 pM (6 of 6 replicates).
Variant GFNLNSYGIS / VIYSDGRRTFYVDSVK / GQAAGTFDS showed nd (0 of 6 replicates).
Variant GFTLNEYGIS / VIYADGRRTFYGDSVK / GGAAGTFDS showed 610 pM (6 of 6 replicates).
Variant GFSLNDYGIS / VIYSDGRRTFYGDHVK / GRTAGTFDS showed 4.6 nM (3 of 6 replicates).
Variant MFELNSYGIS / VIYADGRRTFYGDSVK / GQAAGTFDS showed 54 nM (5 of 6 replicates).
Variant GFDLNEYGIS / VIYADGKRTAYSDNVK / GEVAGTFDV showed 270 pM (6 of 6 replicates).
Variant GFTLNSYGIS / VIYSDGRRTAYSDSVK / GRLAGTFDS showed 1.3 nM (6 of 6 replicates).
Variant GFTLNDYGIS / VIYSDGKRTFYGDSVK / GRAHGTFDS showed nd (0 of 6 replicates).
Variant GFTLNDYGIS / VIYSDGRRTFYGDSVK / GKAAGTFES showed 230 nM (4 of 6 replicates).
Variant GFDLNSYGIS / VIYSDGRRTFYADSVK / GTAAGTFDS showed 4.1 nM (6 of 6 replicates).
Variant GFTLNSYGIS / VIYSDGLRTFYSDSVK / ANAAGTFSS showed 22 µM (1 of 6 replicates).
Variant GFDLNEYGIS / VIYADGKRTAYADNVK / GEVAGTFDV showed 250 pM (6 of 6 replicates).
Variant GFRLNEYGIS / VIYSDGRRTFYGDSVK / GQAAGTFDS showed 40 nM (6 of 6 replicates).
Variant GFTLNSYGIS / VIYSDGVRTFYADSVK / GEAAGTFDS showed 680 nM (3 of 6 replicates).
Variant GFTLSSYGIS / VIYSAGRRTFYGDSVK / GRAAGTFDS showed nd (0 of 6 replicates).
Variant GFDLDEYGIS / VIYADGMRTAYSDKVK / GNNAGTFDV showed 440 pM (6 of 6 replicates).
Variant GFTLNSYGIS / VIYSDGKRTFYADDVK / GRTAGTFDT showed 2.2 nM (6 of 6 replicates).
Variant GFNLGEYGIS / VIYADGRRTFYKDDVK / GHFIVYGVD showed nd (0 of 6 replicates).
Variant GFQLNSYGIS / VIYSDGRRTFYADNVK / GQEAGTFDS showed nd (0 of 6 replicates).
Variant GFDLDEYGIS / VIYADGMRTFYADSVK / GENAGTFDI showed 2.2 nM (6 of 6 replicates).
Variant GFPLNQYGIS / VIYSDGRRTAYGDSVK / GRAAGTFDS showed 1.5 nM (6 of 6 replicates).
Variant GFTLNEYGIS / VIYSDGRRTFYGDSVK / GRFAGTFTS showed nd (0 of 6 replicates).
Variant GFDLDEYGIS / VIYADGRRTAYSDSVK / GENAGTFDL showed 1.8 nM (6 of 6 replicates).
Variant GFDLDEYGIS / VIYADGTRRSYADNVK / GDYHYVVST showed nd (0 of 6 replicates).
Variant GFTLNSYGIS / VIYSFGLRTFYADSVK / GRAIGTFDS showed nd (0 of 6 replicates).
Variant GFDLNEYGIS / VIYADGRRTFYADSVK / GQVAGTFDL showed 120 pM (6 of 6 replicates).
Variant GFHLNNYGIS / VIYSDGRRTFYDDSVK / GQLAGTFDS showed 8.8 nM (6 of 6 replicates).
Variant GFELNSYGIS / VIYSDGRRTFYGDSVK / GMNAGTFDS showed 4.7 nM (6 of 6 replicates).
Variant GFDLNEYGIS / VIYADGVRTAYADDVK / GNVAGTFDA showed 1.2 nM (6 of 6 replicates).
Variant GDNINEYGIS / VIYADGLRTQYAENVK / GDLAGTLDS showed 14 nM (2 of 6 replicates).
Variant GFSLNSYGIS / VIYSDGRRTFYGDSVK / GREAGTFDT showed 480 pM (6 of 6 replicates).

3 of these entries, quoted again:

With GFHLNNYGIS / VIYSDGRRTFYDDSVK / GQLAGTFDS the result was 8.8 nM (6 of 6 replicates).
With GFTLNSYGIS / VIYSDGVRTFYADSVK / GEAAGTFDS the result was 680 nM (3 of 6 replicates).
With GFDLNSYGIS / VIYSDGRRTFYADSVK / GTAAGTFDS the result was 4.1 nM (6 of 6 replicates).